Patent US20250381181A1, “CANCER TREATMENT AGENT INCLUDING MALT1 INHIBITING DRUG AS ACTIVE INGREDIENT” (ONO PHARMACEUTICAL CO., LTD., priority 2022, published 2025)

What was measured:
[1] = test system: Human mantle cell lymphoma cell line; assay: Combination of Compound A and each anticancer agent, cell viability (Cell Counting Kit-8); conditions: combined treatment with Compound A (3, 10, 30 or 100 nmol/L), 6 days
[2] = test system: Human CD79 mutation-positive diffuse large B-cell lymphoma cell line; assay: as above; conditions: combined treatment with Compound A (3, 10, 30 or 100 nmol/L); CD79 mutation-positive DLBCL; 6 days

| SMILES | Combination index (CI) value, median [1] | Combination index (CI) value, median [2] |
| --- | --- | --- |
| CC[C@]1(O)C[C@H]2CN(CCc3c([nH]c4ccccc34)[C@@](C(=O)OC)(c3cc4c(cc3OC)N(C=O)[C@H]3[C@@](O)(C(=O)OC)[C@H](OC(C)=O)[C@]5(CC)C=CCN6CC[C@]43[C@@H]65)C2)C1 [Vincristine] | 0.860 | 0.961 |
| O=P1(N(CCCl)CCCl)NCCCO1 (stereo not drawn) [Cyclophosphamide] | 0.931 | – |
| Cn1c(CCCC(=O)O)nc2cc(N(CCCl)CCCl)ccc21 [Bendamustine] | 0.793 | 0.796 |
| CC(C)C[C@H](NC(=O)[C@H](Cc1ccccc1)NC(=O)c1cnccn1)B(O)O [Bortezomib] | 0.989 | – |
